The results in this text go back to patent US11267868 (dated 2022).

The assay deals with T1, FcgRIa (human, UniProt P12314).
T1 chain: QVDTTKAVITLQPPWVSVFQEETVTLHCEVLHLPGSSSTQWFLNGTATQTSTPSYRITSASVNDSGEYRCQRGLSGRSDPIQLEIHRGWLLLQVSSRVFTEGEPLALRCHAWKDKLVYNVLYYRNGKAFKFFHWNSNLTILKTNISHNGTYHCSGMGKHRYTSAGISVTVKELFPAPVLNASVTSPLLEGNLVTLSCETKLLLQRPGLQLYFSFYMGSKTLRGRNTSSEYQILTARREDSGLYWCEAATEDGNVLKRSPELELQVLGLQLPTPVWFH
Kind of assay: SPR.

B1: IL6R-P604/IL6R-L (antibody)
chain 1: QVQLQESGPGLVKPSETLSLTCAVSGHSISHDHAWSWVRQPPGEGLEWIGFISYSGITNYNPSLQGRVTISRDNSKNTLYLQMNSLRAEDTAVYYCARSLARTTAMDYWGEGTLVTVSSASTKGPSVFPLAPSSKSTSGGTAALGCLVKDYFPEPVTVSWNSGALTSGVHTFPAVLQSSGLYSLSSVVTVPSSSLGTQTYICNVNHKPSNTKVDKKVEPKSCDKTHTCPPCPAPELLGGDSVMLFPPKPKDTLMISRTPEVTCVVVDVSHEDPEVKFNWYVDGVEVHNAKTKPREEQENATYRVVSVLTVLHQDWLNGKEYKCKVSNKALPAPIEKTISKAKGQPREPQVYTLPPSRDELTKNQVSLTCLVKGFYPSDIAVEWESNGQPENNYKTTPPVLDSDGSFFLYSKLTVDKSRWQQGNVFSCSVMHEALHNHYTQKSLSLSP
chain 2: not shown
In turn, B1 yielded a Kd of 13 nM.

B2: IL6R-P688/IL6R-L (antibody)
chain 1: QVQLQESGPGLVKPSETLSLTCAVSGHSISHDHAWSWVRQPPGEGLEWIGFISYSGITNYNPSLQGRVTISRDNSKNTLYLQMNSLRAEDTAVYYCARSLARTTAMDYWGEGTLVTVSSASTKGPSVFPLAPSSKSTSGGTAALGCLVKDYFPEPVTVSWNSGALTSGVHTFPAVLQSSGLYSLSSVVTVPSSSLGTQTYICNVNHKPSNTKVDKKVEPKSCDKTHTCPPCPAPELLGGDSVMLFPPKPKDTLMISRTPEVTCVVVDVSPEDPEVKFNWYVDGVEVHNAKTKPREEQENSTYRVVSVLTVLHQDWLNGKEYKCKVNNKALPAPIEKTISKAKGQPREPQVYTLPPSRDELTKNQVSLTCLVKGFYPSDIAVEWESNGQPENNYKTTPPVLDSDGSFFLYSKLTVDKSRWQQGNVFSCSVMHEALHNHYTQKSLSLSP
chain 2: not shown
Molecule B2 registered a Kd of 13 nM.
